In one test the target is T1, human Urokinase (Homo sapiens, UniProt P00749).
T1 construct: purchased American Diagnostica, CT, USA
The test is described as follows: Urokinase (uPA) inhibition, chromogenic substrate hydrolysis, Ki app. The class given is biochemical.

In a further test the target is T2, human Factor Xa (Homo sapiens, UniProt P00742).
T2 construct: purified human Factor Xa; purchased Haematologic Technologies, VT, USA
The test is described as follows: Factor Xa inhibition, chromogenic substrate hydrolysis, Ki app. The class given is biochemical.

For `N=C(N)c1ccc2nc(-c3cccc(-c4ccccc4)c3O)[nH]c2c1` [Ex. 110, 2-(2-Hydroxy-biphenyl-3-yl)-3H-benzoimidazole-5-carboxamidine], the Ki on human Urokinase stood at 0.51 µM.
Consider `N=C(N)c1cc2cc(-c3cccc(-c4ccccc4)c3O)[nH]c2cc1F` [compound 877], for which the Ki on human Factor Xa came to 0.033 µM; on human Urokinase, 2.5 µM.

Source of the values: US6867200B1, “(Hetero)aryl-bicyclic heteroaryl derivatives, their preparation and their use as protease inhibitors” (Axys Pharmaceuticals, Inc., priority 1998, dated 2005).
